# Reference: US20210087238A1, “CELL PENETRATING PEPTIDES AND RELATED COMPOSITIONS AND METHODS” (Phylogica Limited, priority 2017, published 2021)
# Test system: CHO-K1 cells
# Test: PAP cell viability assay: SpyC_PAP conjugated to CPP_SpyT, resazurin reduction
# Assay type: cell-based
# Conditions: all concentrations tested up to 30 μM; FIG. 4A
# Protocol: With the exception of SpyC PAS proteins, conjugations were set up at a SpyCatcher:SpyTag ratio of 1:1.25, with a 40 μM final concentration for the SpyCatcher moiety. SpyC proteins and SpyTag peptides were incubated for 2 h at 22° C. with gentle mixing, and then left at 4° C. overnight. Conjugation efficiencies were analyzed on 4-16% SDS-PAGE gels stained with Gel Code Blue Reagent (Thermo Fisher Scientific). SpyC_PAS proteins were conjugated with SpyTag peptides at ratio 1:1.1, mixed and incubated at room temperature for 30 mins before being stored overnight at 4° C.
# All assays followed manufacturer's instructions.
# SpyC-PAP/CPP-SpyT complex IC50s were ranked according to potency to determine impact of changes to primary CPP sequence. […] SpyC_BLA/CPP-SpyT complex median cell fluorescence at 4 μM concentration was ranked according to intensity to determine impact of changes to primary CPP sequence. […]
# For the first readout of functional activity we chose the proapoptotic peptide PAP (SEQ ID NO:61; Ellerby et al 1999, Nat Med, 5, 1032-1038) as a functional cargo and expressed it recombinantly, fused to SpyCatcher (SEQ ID NO:83) (abbreviated as “SpyC_PAP” or “SpyC-PAP”; SEQ ID NO:62) to enable subsequent conjugation with synthetic CPP-SpyTag fusion proteins. […]
molecule,measurement,value
"SpyC_PAP: SpyCatcher-proapoptotic peptide fusion protein (protein, Amino acid sequence of a SpyCatcher-proapoptotic peptide fusion protein (SC-PAP)) MGHHHHHHGATLEVLFQGPGGSDSATHIKFSKRDEDGKELAGATMELRDSSGKTISTWISDGQVKDFYLYPGKYTFVETAAPDGYEVATAITFTVNEQGQVTVNGKATKGGSGTGATSGKLAKLAKKLAKLA",effect on CHO-K1 cell viability,no effect
